Assay results from PMC3904085 (2014).
Like-named read-outs stand apart in the source and are kept apart here. One block for each molecule: values may come before it.

The chains behind the UniProt entries cited, without tags or fusion partners.
UniProt P56719, whole entry: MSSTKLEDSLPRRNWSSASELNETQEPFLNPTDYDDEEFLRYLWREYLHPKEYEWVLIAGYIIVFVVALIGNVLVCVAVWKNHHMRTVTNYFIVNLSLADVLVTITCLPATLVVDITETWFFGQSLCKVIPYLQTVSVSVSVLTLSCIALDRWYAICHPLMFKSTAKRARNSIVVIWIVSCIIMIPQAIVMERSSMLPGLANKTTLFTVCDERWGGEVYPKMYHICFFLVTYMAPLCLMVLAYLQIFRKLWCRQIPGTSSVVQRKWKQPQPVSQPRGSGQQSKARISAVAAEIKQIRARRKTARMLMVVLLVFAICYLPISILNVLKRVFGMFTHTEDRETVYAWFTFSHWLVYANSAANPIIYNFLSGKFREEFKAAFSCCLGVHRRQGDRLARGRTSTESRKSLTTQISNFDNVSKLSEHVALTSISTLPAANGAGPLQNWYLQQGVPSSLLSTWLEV
UniProt P56718, whole entry: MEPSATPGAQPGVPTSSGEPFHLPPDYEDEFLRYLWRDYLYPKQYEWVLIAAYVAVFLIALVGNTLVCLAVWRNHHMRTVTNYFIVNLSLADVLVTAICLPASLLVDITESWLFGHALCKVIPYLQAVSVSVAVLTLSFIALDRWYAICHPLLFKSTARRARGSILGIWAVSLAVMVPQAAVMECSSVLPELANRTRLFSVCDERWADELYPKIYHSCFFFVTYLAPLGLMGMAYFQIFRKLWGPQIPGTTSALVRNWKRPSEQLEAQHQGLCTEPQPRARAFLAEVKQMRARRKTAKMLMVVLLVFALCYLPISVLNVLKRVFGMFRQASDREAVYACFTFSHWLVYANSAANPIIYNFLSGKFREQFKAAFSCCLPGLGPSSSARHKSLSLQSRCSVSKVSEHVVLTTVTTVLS
UniProt O43613, whole entry: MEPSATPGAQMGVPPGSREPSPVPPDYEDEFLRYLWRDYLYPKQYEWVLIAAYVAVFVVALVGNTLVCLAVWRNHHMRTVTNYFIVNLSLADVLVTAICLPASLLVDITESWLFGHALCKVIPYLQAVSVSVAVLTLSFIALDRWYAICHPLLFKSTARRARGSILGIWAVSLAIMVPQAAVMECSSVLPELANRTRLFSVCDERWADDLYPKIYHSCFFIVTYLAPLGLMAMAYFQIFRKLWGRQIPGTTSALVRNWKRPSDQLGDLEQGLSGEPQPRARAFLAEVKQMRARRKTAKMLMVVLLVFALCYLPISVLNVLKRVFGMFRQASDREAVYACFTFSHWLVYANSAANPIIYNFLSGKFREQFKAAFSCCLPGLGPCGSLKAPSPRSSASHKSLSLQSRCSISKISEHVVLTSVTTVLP

Experiments:
[1] = biological target: rat OX2 receptors (Rattus norvegicus, UniProt P56719); assay: cell-based
[2] = biological target: rat OX1 receptors (Rattus norvegicus, UniProt P56718); assay: cell-based
[3] = biological target: T1, human OX1 receptors (Homo sapiens, UniProt O43613); assay: Radioligand binding, [125I]-Orexin A displacement, HEK293 membranes
[4] = biological target: T1, human OX1 receptors; assay: Intracellular calcium mobilization (FLIPR), antagonist mode vs EC70 orexin-A

Kb [1]: > 10000 nM | Kb [2]: 7.1 ± 0.71 nM
Compound: Cc1nc2ccc(NC(=O)Nc3ccnc4cccnc34)cc2o1 [SB334867]

Compound: CNC(=O)[C@@H](c1ccccc1)N1CCc2cc(OC)c(OC)cc2[C@@H]1CCc1ccc(C(F)(F)F)cc1 [Almorexant (R)]
Ki ([3]; read-out: Receptor binding affinity, Ki OX1, HEK293 membranes, [125I]-orexin A, 90 min, mean ± s.e.m. (n)): > 10000 nM | Kb ([4]; read-out: Functional antagonist activity, Kb hOX1, HEK293 cells, calcium mobilization, EC70 orexin-A, mean ± s.e.m. (n)): > 10000 nM

Compound: CNC(=O)[C@@H](c1ccccc1)N1CCc2cc(OC)c(OC)cc2[C@@H]1CCc1ccc(C(F)(F)F)cc1 [Almorexant (S)]
Ki [3]: 21 ± 3.2 nM | Kb [4]: 2.32 ± 0.18 nM
